# Values quoted from earlier work in patent US20150024966A1, “MESENCHYMAL STEM CELLS FOR IN VITRO MODELING AND CELL-BASED THERAPY OF HUMAN DISEASES AND BANKS THEREOF” (BrainStem Biotec Ltd., priority 2012, published 2015).
# System: ALS patients
smiles,measurement,value
Nc1nc2ccc(OC(F)(F)F)cc2s1 [riluzole],increases the rate of survival,6 months
